The values that follow are results of earlier work, collected in US20170042890A1, “METHODS OF REDUCING DECLINE IN VITAL CAPACITY” (Cytokinetics, Inc., priority 2014, published 2017).

SMILES strings stand for the structures.

In this series the test system is ALS. As to conditions: Lacomblez 1996; cited from earlier work.

Turning to `Nc1nc2ccc(OC(F)(F)F)cc2s1` [riluzole], the “Prolongation of survival or time to tracheostomy versus placebo” value is 2-3 months.
